# Source: PubChem BioAssay
# Shown are actives, neighbours in structure and some others; about 0.66% of the full set was active somewhere.
# Rango release inh – prevents RanGTP from dissociating the Rango-importin beta complex | O95149+P62826 | Biochemical FRET Rango-importin beta, RanGTP-induced dissociation | Potency, µM (doses to about 46.1 µM), for inactives: top-dose activity change, negative = inhibition | 0.071% of 340,000 active | AID 540253; note: % of control where 0% means no effect; nearly all actives have a fitted effect of over 45% in size
#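 Quantitative HTS using a FRET biosensor: 0.1 uM Rango, 0.25 uM importin beta, 0.6 uM Ran, 2 mM GTP, 0.2 uM RCC1 final, PBS with DTT, Tween-20 and BSA. Post-read taken 45 min after Ran addition.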
# gsp antag – antagonists of gsp mutant (McCune-Albright syndrome). Potency, µM (series often up to 76.9 µM), inactives show at the top dose activity change, negative = inhibition, most hits filed as inhibitors. AID 624288. gsp-mutant cells, cAMP HTRF, 30 min. 0.4% of 340,000 active; calls by dose curve; cell line not stated here;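 note: intracellular cAMP measured with PDE inhibitor Ro 20-1724 present during compound exposure; % is set by controls: 0 for no effect and ±100 for the full control effect; nearly all actives have a fitted effect of over 65% in size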
#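 HTRF cAMP measurement after 30 min RT detection following 30 min, 37C compound treatment alongside […] (added as 300 uM solution) in G418-selected cells seeded at 2000/well and grown 16–24 h.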
# gsp agonist – gsp mutant agonism; gsp mutant cells, cAMP HTRF, 30 min; Potency, µM (doses to about 76.9 µM), without a hit: top-dose activation (cAMP increase), hits mostly activators; 0.13% of 340,000 active; AID 624287; active = well fitted activation curve with a large enough effect; inconclusive = small, poorly fitted or top-dose-only effect, or another doubt; inactive = no such curve, though single readings can be large or run the other way; cell line not stated here;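 note: phosphodiesterase inhibitor Ro 20-1724 added with compounds to block cAMP breakdown; nearly all actives have a fitted effect of over 60% in size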
#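 Cells in DMEM/10% FBS with G418 were pretreated with compounds in DMSO plus […] (300 uM stock) for 30 min at 37C. cAMP was measured by HTRF (cAMP-d2 plus anti-cAMP antibody-K) after 30 min at room temperature.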
# Rango-impB inh – inhibitors of Rango-importin beta complex formation. Q14974. Rango CFP/YFP FRET sensor + importin beta, 45 min. Potency, µM (highest dose often 92.2 µM), for inactives: at the top dose inhibition of complex formation. 0.031% of 340,000 active. AID 540263;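 note: 0% = DMSO wells and 100% = buffer wells lacking importin beta; nearly all actives have a fitted effect of over 15% in size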
#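 FRET biosensor (snurportin 1 IBB flanked by EYFP and cerulean), 50 nM, with compound 5 min, then 0.125 microM importin beta in PBS, 1 mM DTT, 0.02% Tween-20, 0.1% BSA. CFP/YFP ratio read after 45 min at room temperature; pre-read flags interference.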
# * marks the source's active call; other numbers are inactive results; ? = inconclusive; . = not tested or not shown; [ ] = another dose, or the depositor's remark. Unless noted, calls come from the whole dose curve. Potency is the fitted concentration of half-maximal effect.
1) C[C@@H]1CN([C@@H](C)CO)C(=O)c2cc(Br)cnc2O[C@H]1CN(C)Cc1cccc(C(=O)O)c1
2) CC1=C/C(=C(/c2cc(C)c(O)c(Br)c2)c2ccccc2S(=O)(=O)O)C=C(Br)C1=O
3) CC1=C/C(=C(/c2ccc(O)c(C)c2)c2ccccc2S(=O)(=O)O)C=CC1=O
4) Cn1cc(C(=O)C(=O)NC2CCCCC2)c2ccccc21
5) COc1cc(CNn2nnnc2N)cc(Br)c1OCC(=O)NC(C)(C)C
6) COc1cc(CNn2nnnc2N)cc(Br)c1OCc1c(Cl)cccc1Cl
7) O=[N+]([O-])c1ccc2nc(/C=C/c3ccc(Cl)cc3)[nH]c2c1
8) Cc1ccc2c(=O)n3c(nc2c1)C(C)NC(=O)c1cccnc1-3 (stereo not drawn)

assay / compound | 1 | 2 | 3 | 4 | 5 | 6 | 7 | 8
Rango-impB inh | . | ? | -0.6% | 5.2% | -2.5% | -4.9% | 2.8% | .
Rango release inh | . | -6.8% | 0.2% | -6.3% | 4.7% | -9.3% | 0.0% | .
gsp antag | . | 20µM* | 0.4% | 50.1µM* | 6.0% | 39.8µM* | 35.5µM* | .
gsp agonist | -45.4% | -160.6% | 25.2% | 26.1% | -19.2% | -2.9% | -17.3% | 31.6µM*

9) Cc1cc(C)c2c(=O)n3c(nc2c1)C(C)NC(=O)c1cccnc1-3 (stereo not drawn)
10) Cc1ccc(S(=O)(=O)N2CCCCC2)cc1NC(=O)c1ccc(=O)[nH]c1
11) Cc1nnc(N2C(=O)C(O)=C(C(=O)c3ccco3)C2c2ccc(F)cc2)s1 (stereo not drawn)
12) Cc1nnc(N2C(=O)C(O)=C(C(=O)c3ccco3)C2c2ccc(C(C)(C)C)cc2)s1 (stereo not drawn)
13) COc1ccc(NC(=O)c2ccncc2)cc1S(=O)(=O)N1CCCCC1
14) CCCn1c(SCC(=O)Nc2ccccc2C(=O)NC2CC2)n[nH]c1=O
15) CN(Cc1cccc2cnccc12)C(=O)c1cc(COc2ccc(F)cc2F)on1
16) CCc1ccc(CN(C)C(=O)c2cc(COc3cccc4cnccc34)on2)cc1

assay / compound | 9 | 10 | 11 | 12 | 13 | 14 | 15 | 16
Rango-impB inh | . | . | -5.1% | ? | . | -2.0% | 0.3% | -0.1%
Rango release inh | . | . | ? | 25.9µM* | . | -0.5% | -3.3% | 7.1%
gsp antag | . | . | -3.6% | -5.1% | . | 30.7% | -30.4% | 35.5µM*
gsp agonist | -18.3% | -28.4% | ? | ? | -16.8% | 44.7µM* | -10.8% | -27.1%

17) O=C(c1cc(COc2cccc3cnccc23)on1)N1CCC(c2ccccc2Cl)C1 (stereo not drawn)
18) Cn1cc(/C=C(\C#N)C(=O)Nc2ccccc2O)c2ccccc21
19) CC(C)OC(=O)/C(C#N)=C/c1cn(C)c2ccccc12
20) CCCCCC(=O)N1C[C@H](O)[C@@H](n2cc(C3CC3)nn2)C[C@@H]1c1ccc(C)cc1
21) Cn1c(SCC(=O)NCc2ccc3c(c2)OCO3)nnc1-c1cc2ccccc2cc1O
22) COC(=O)C(C)Oc1ccc2c(c1)O/C(=C\c1ccco1)C2=O (stereo not drawn)
23) COC(=O)c1ccc(/C=C/C(=O)OCC(=O)Nc2sccc2C(N)=O)cc1
24) COC(=O)c1ccc(CNC(=O)COC(=O)/C=C/c2cccc(OC)c2)cc1

assay / compound | 17 | 18 | 19 | 20 | 21 | 22 | 23 | 24
Rango-impB inh | -0.3% | ? | ? | . | 0.7% | ? | -1.3% | .
Rango release inh | -8.8% | 18.4µM*[inhibitor] | -6.6% | . | -12.6% | 20.6µM* | -1.5% | .
gsp antag | 28.2µM* | ? | -12.3% | . | 39.8µM* | -16.3% | 28.2µM* | .
gsp agonist | -9.4% | 8.4%[15.4 µM] | 8.9% | -25.8% | ? | -69.8% | 5.1% | -0.9%

# Filtered by structure: the compounds so far containing a Cl atom (3)
6) COc1cc(CNn2nnnc2N)cc(Br)c1OCc1c(Cl)cccc1Cl
7) O=[N+]([O-])c1ccc2nc(/C=C/c3ccc(Cl)cc3)[nH]c2c1
17) O=C(c1cc(COc2cccc3cnccc23)on1)N1CCC(c2ccccc2Cl)C1 (stereo not drawn)

assay / compound | 6 | 7 | 17
Rango-impB inh | -4.9% | 2.8% | -0.3%
Rango release inh | -9.3% | 0.0% | -8.8%
gsp antag | 39.8µM* | 35.5µM* | 28.2µM*
gsp agonist | -2.9% | -17.3% | -9.4%

# New compounds follow.
25) COC(=O)c1ccc(CNC(=O)COC(=O)/C=C/c2ccc(O)c(OC)c2)cc1
26) NC(=O)c1ccsc1NC(=O)COC(=O)/C=C/c1ccc([N+](=O)[O-])cc1
27) COC(=O)C[C@H]1C[C@H]2c3cc(NS(=O)(=O)c4cccc(OC)c4)ccc3O[C@H]2[C@@H](CO)O1
28) O=C(c1ccco1)N1CCN(Cc2cc(=O)c(OCc3ccccc3)co2)CC1
29) Cc1cccc(COc2coc(CN3CCN(C(=O)c4ccco4)CC3)cc2=O)c1
30) COCCN(CCOC)c1nc(-c2ccc(C)cc2)nc2ccccc12
31) Cc1ccc(-c2nc(NCCN(C)C)c3ccccc3n2)cc1
32) O=C(C1CCC(CNS(=O)(=O)c2cccc3nsnc23)CC1)N1CC=C(c2ccccc2)CC1 (stereo not drawn)

assay / compound | 25 | 26 | 27 | 28 | 29 | 30 | 31 | 32
Rango-impB inh | ? | -0.1% | . | -0.5% | 2.2% | 5.4% | -1.6% | -0.4%
Rango release inh | 18.4µM* | 4.8% | . | -11.0% | -7.7% | -17.9% | 5.1% | -3.4%
gsp antag | -16.5% | 4.6% | . | 7.6% | -1.2% | 28.2µM* | 6.3% | 35.5µM*
gsp agonist | 2.9%[15.4 µM] | 3.4%[15.4 µM] | -44.0% | 20µM* | -0.1%[15.4 µM] | -16.3% | -2.2%[15.4 µM] | -14.2%

33) COc1cc(/C=C2\SC(=S)N(NS(=O)(=O)c3ccc(C)cc3)C2=O)ccc1O
34) CCOc1cc(/C=C2\SC(=S)N(NS(=O)(=O)c3ccc(C)cc3)C2=O)ccc1O
35) O=C(CNc1ccc(C(F)(F)F)cc1)Nc1cccc(S(=O)(=O)N2CCCCC2)c1
36) Cc1cc(OCC(=O)OCC(=O)N2CCCc3ccccc32)ccc1Cl
37) CC(C)CC1C(=O)N(Cc2cn(Cc3ccco3)nn2)CCS(=O)(=O)N1Cc1ccc(-c2ccccc2)cc1 (stereo not drawn)
38) COc1ccc(C(=O)NCC(=O)N=Nc2c(O)n(Cc3ccccc3)c3ccccc23)cc1OC
39) COc1ccccc1CNC(=O)CCCc1nnc2n(C)c(=O)c3sccc3n12
40) COc1ccccc1NC(=O)CCCc1nnc2n(C)c(=O)c3sccc3n12

assay / compound | 33 | 34 | 35 | 36 | 37 | 38 | 39 | 40
Rango-impB inh | 41.1µM* | 23.1µM* | . | . | . | 0.1% | -3.2% | 0.2%
Rango release inh | ? | 16.9% | . | . | . | -9.2% | -13.9% | 1.8%
gsp antag | ? | -23.8% | . | . | . | 11.2µM* | -2.4% | 10.6%
gsp agonist | -21.1% | -4.7% | -75.3% | -78.0% | 41.5% | 10.0%[15.4 µM] | 14.1µM* | 12.6µM*

41) S=c1ncc2[nH]c(=S)[nH]c2[nH]1
42) CCN(CC)C(=O)C1=C(C)N(Cc2ccccc2)C(=O)C(CC(=O)NC2CC2)C1 (stereo not drawn)
43) Cc1ccc(-n2c(C)cc(C(=O)CSc3nncs3)c2C)cc1
44) Cc1cc(C(=O)CSc2nncs2)c(C)n1-c1c(C)n(C)n(-c2ccccc2)c1=O
45) O=C(Nc1ccc(N2CCN(C(=O)c3ccccc3)CC2)cc1)c1cc2ccccc2o1
46) O=C(NN=Cc1ccc(Cl)cc1Cl)C1CC1
47) O=C(c1ccoc1)N1CCN(c2cc(-c3cccnc3)nc3cc(-c4cccc(Cl)c4)nn23)CC1
48) O=C(OCC(=O)N1CCCC1)c1ccc(S(=O)(=O)Nc2ccccc2)cc1

assay / compound | 41 | 42 | 43 | 44 | 45 | 46 | 47 | 48
Rango-impB inh | -3.5% | . | -2.1% | 1.2% | 0.6% | 2.9% | . | 0.1%
Rango release inh | 1.2% | . | -4.7% | 9.5% | 8.8% | 2.3% | . | 5.0%
gsp antag | -4.3% | . | 25.1µM* | -1.9% | 35.5µM* | -5.2% | . | 11.2µM*
gsp agonist | ? | 12.3% | -10.0% | 19.2% | -9.7% | -17.4% | 3.1% | -71.5%

49) O=C(OCC(=O)N1CCCCC1)c1cccc(NS(=O)(=O)c2ccccc2)c1
50) C[C@H]1CN([C@@H](C)CO)C(=O)CCCn2nncc2CO[C@H]1CN(C)S(=O)(=O)c1ccc(Oc2ccccc2)nc1
51) O=S(=O)(Nc1nc2ccccc2nc1Nc1cccc(S(=O)(=O)N2CCCCC2)c1)c1ccccc1
52) COc1ccc(S(=O)(=O)N(C)C[C@@H]2Oc3cc(C#CC4CCCCC4)ccc3S(=O)(=O)N([C@@H](C)CO)C[C@@H]2C)cc1
53) COc1cccc2[nH]c3c(N4CCC5(CC4)OCCO5)ncnc3c12

assay / compound | 49 | 50 | 51 | 52 | 53
Rango-impB inh | 2.0% | . | ? | . | 0.2%
Rango release inh | -12.7% | . | -15.1% | . | -6.5%
gsp antag | -2.4% | . | 35.5µM* | . | -7.5%
gsp agonist | 11.9% | -58.0% | -45.3% | -95.5% | -3.8%

# Quoted at random: 2 entries already listed.
50) C[C@H]1CN([C@@H](C)CO)C(=O)CCCn2nncc2CO[C@H]1CN(C)S(=O)(=O)c1ccc(Oc2ccccc2)nc1
52) COc1ccc(S(=O)(=O)N(C)C[C@@H]2Oc3cc(C#CC4CCCCC4)ccc3S(=O)(=O)N([C@@H](C)CO)C[C@@H]2C)cc1

assay / compound | 50 | 52
Rango-impB inh | . | .
Rango release inh | . | .
gsp antag | . | .
gsp agonist | -58.0% | -95.5%
